In article PMC5524369:

Legend:
complement 3b (human) [1] = target: complement 3b (human) (UniProt P01024)
complement 3b (human) [2] = target: complement 3b (human) (UniProt P01024); remark: listed apart in the source
complement 3b (human) [3] = target: complement 3b (human) (UniProt P01024); remark: listed apart in the source

cofactor in CFI-mediated C3b degradation, 5 μg THP from 5 females, 37°C for 4 h: band intensity ratio C3bα41/C3b ß-chain (complement 3b (human) [1]): 0.397
cofactor in CFI-mediated C3b degradation, 5 μg THP from 5 females, 37°C for 4 h: band intensity ratio C3bα62/C3b ß-chain (complement 3b (human) [1]): 0.565
cofactor in CFI-mediated C3b degradation, 5 μg THP from 5 males, 37°C for 4 h: band intensity ratio C3bα41/C3b ß-chain (complement 3b (human) [1]): 0.443
cofactor in CFI-mediated C3b degradation, 5 μg THP from 5 males, 37°C for 4 h: band intensity ratio C3bα62/C3b ß-chain (complement 3b (human) [1]): 0.535
cofactor in CFI-mediated C3b degradation, "high" CFH THP sample (5.3 pg CFH/5 μg THP), 37°C for 4 h: band intensity ratio C3bα62/C3b ß-chain (complement 3b (human) [2]): 0.36
cofactor in CFI-mediated C3b degradation, "low" CFH THP sample (1.1 pg CFH/5 μg THP), 37°C for 4 h: band intensity ratio C3bα62/C3b ß-chain (complement 3b (human) [2]): 0.37
cofactor in CFI-mediated C3b degradation: amount of CFH whose cofactor activity equals that of 5 μg THP (extrapolated from the CFH dose curve) (complement 3b (human) [3]): 0.37 ng CFH
Substance: Tamm-Horsfall protein (from UniProt P07911 25-614) (natural protein)
